Data reported in ChEMBL document CHEMBL1131225, “Macrocyclic amino carboxylates as selective MMP-8 inhibitors” (J Med Chem, 1998).

Molecular target: T1, Interstitial collagenase (Homo sapiens, UniProt P03956)
T1 sequence (P03956 whole entry): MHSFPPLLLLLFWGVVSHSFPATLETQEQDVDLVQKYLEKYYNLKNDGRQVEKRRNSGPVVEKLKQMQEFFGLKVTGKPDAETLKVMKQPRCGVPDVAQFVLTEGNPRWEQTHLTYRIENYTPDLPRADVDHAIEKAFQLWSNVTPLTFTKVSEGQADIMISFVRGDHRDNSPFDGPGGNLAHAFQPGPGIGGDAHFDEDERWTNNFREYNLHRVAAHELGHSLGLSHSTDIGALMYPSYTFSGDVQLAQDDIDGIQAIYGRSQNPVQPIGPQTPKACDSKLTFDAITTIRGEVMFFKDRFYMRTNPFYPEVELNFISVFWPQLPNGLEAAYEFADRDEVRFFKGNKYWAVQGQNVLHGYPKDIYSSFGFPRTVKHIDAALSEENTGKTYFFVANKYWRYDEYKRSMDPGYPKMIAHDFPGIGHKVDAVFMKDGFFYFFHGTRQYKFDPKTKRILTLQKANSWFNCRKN
Test: Inhibition of Matrix metalloprotease-1

| Compound | Ki [µM] |
| --- | --- |
| CNC(=O)[C@@H]1CCCCNC(=O)CC[C@H](C(=O)O)N[C@@H](CCc2ccccc2)C(=O)N1 | 2.5 |
| CNC(=O)CC[C@@H](N[C@@H](CCc1ccccc1)C(=O)N[C@@H](CCCCNC(C)=O)C(=O)NC)C(=O)O | 2.86 |
